Laboratory results reported in PubChem BioAssay AID624114 (Johns Hopkins Ion Channel Center, 2012).
The list shows a part of the results, in another mix than the full data. Activity calls are given as the source filed them.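 How the source made its calls: active means calcium fluorescence ratio, averaged over duplicates, at least 3 SD of the buffer-well ratio, meaning a nonspecific response in receptor-free cells; inactive means the rest.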

Assay: nonspecific Ca2+ flux in HEK293 lacking MrgX1 – cell-based, Fluo-4 calcium flux, duplicate, counter-screen for MrgX1 allosteric activator project, primary screen (AID 624114)
Settings: parental HEK293 calcium flux, Fluo-4 fluorescence ratio; at 10 µM

Row | SMILES | fluorescence ratio F(max-min)/F0
1 | CN(C)C1(CNC(=O)c2ccc(Cl)c(S(N)(=O)=O)c2)CCCCC1 | inactive: 0
